For this test, the system named is rat pooled liver microsomes.

1 molecule from PMC6510361 (Medicine and Pharmacy Reports, 2019) can be followed below.

As to `CC(NC(C)(C)C)C(=O)c1cccc(Cl)c1` (stereo not shown) [Bupropion, bupropion], the “decrease of carvedilol metabolisation rate” value was 14.5%.
